This note sets out measurements from publication PMC9865020, “Identification of Novel Small Molecule Ligands for JAK2 Pseudokinase Domain” (Pharmaceuticals, 2023).

Protein sequences, listed by entry. Tags and fused reporters are not part of them. Residues count along the entry.
UniProt O60674, 503-827: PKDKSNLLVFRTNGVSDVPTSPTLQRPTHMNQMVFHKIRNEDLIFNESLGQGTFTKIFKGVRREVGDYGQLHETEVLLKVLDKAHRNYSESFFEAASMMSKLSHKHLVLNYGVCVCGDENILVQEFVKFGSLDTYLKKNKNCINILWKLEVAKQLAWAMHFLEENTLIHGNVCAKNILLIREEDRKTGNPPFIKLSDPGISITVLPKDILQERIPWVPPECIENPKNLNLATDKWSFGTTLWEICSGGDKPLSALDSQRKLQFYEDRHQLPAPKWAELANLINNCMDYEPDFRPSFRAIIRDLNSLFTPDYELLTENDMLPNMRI
UniProt O60674, 836-1132 D976N: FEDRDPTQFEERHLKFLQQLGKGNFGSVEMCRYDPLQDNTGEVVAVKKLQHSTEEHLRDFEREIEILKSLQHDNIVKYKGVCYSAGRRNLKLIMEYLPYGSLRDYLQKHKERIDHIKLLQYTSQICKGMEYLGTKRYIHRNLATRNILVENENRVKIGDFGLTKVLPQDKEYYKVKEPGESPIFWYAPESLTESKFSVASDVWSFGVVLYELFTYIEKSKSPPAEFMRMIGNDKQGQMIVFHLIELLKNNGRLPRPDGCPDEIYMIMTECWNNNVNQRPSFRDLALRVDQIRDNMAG
UniProt O60674, 545-809 V617F limits assumed: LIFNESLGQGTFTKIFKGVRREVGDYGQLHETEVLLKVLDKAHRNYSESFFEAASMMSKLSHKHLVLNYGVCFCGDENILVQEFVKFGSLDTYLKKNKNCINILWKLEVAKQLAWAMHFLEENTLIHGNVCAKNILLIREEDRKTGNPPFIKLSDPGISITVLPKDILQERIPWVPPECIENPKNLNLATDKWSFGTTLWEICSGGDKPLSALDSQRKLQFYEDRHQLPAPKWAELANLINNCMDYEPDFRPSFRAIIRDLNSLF
UniProt P23458, 553-836: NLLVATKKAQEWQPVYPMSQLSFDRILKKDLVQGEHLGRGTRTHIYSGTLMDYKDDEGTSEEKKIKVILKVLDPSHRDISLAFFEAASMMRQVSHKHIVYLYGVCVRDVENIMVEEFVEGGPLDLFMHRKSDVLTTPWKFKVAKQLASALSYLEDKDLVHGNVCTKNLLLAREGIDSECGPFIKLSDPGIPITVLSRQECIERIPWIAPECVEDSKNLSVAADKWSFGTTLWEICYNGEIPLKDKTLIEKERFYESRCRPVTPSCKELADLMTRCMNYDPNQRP
UniProt P29597, 564-876: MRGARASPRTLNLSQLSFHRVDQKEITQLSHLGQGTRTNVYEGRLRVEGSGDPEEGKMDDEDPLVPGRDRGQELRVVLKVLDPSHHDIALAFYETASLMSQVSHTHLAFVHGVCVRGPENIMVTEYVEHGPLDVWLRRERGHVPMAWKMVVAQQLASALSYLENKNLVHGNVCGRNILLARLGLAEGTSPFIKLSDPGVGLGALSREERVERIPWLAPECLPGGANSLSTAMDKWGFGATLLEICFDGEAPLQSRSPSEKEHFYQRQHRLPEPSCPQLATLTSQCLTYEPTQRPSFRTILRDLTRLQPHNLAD

The target in one experiment is T1, JAK2 JH2 wild-type (Homo sapiens, UniProt O60674).
T1 construct: Human JAK2 JH2 (503-827); hexa histidine-tag (C); made in house; host or cells: High Five or Sf9 insect cells
In words: Fluorescence polarization binding assay, Bodipy FL-ATP tracer.

The next experiment concerns the target JAK2 JH1 D976N (Homo sapiens, UniProt O60674, D976N). The description is as above.
In another experiment the target is JAK1 JH2 (Homo sapiens, UniProt P23458). Description: More sensitive FP binding assay, Bodipy FL-labeled JNJ-7706621 tracer. As to conditions: from Table 2 binding IC50.
For the next experiment, the target named is TYK2 JH2 (Homo sapiens, UniProt P29597). The description is as above. As to conditions: from Table 2 binding IC50.
Another experiment has as its target JAK2 JH2 V617F (Homo sapiens, UniProt O60674, V617F). In words: Fluorescence polarization binding assay, Bodipy FL-ATP tracer. Details: Hyperactive mutation V617F in the JAK2 regulatory pseudokinase domain (JH2); His tag (C); made in house; host or cells: High Five or Sf9 insect cells. (In general: Fluorescence polarisation rises when a labelled molecule tumbles more slowly, as on binding a larger partner.)

What is called IC50 is the concentration that gives 50% inhibition. Lower therefore signals greater potency in that assay. As for `c1nc2nc(Nc3ccc(N4CCOCC4)cc3)nc(NC3CCCCC3)c2[nH]1` [Compound 7, Reversine, reference compound], the IC50 on JAK2 JH2 wild-type, on JAK2 JH1 D976N and at JAK2 JH2 V617F was no more than 3.5 µM throughout. For the same molecule, the “JAK1 binding JH2-selective over JH1” value at JAK1 JH2 came out at 2 fold. Also, the “TYK2 binding JH2-selective over JH1” value at TYK2 JH2 was 2 fold.
